Earlier results, collected in patent US10239871B2, “Compounds and methods for regulating integrins” (ADHAERE PHARMACEUTICALS, INC., priority 2012, dated 2019).

Tested on: patients
Settings: human, in vivo; cited from earlier work

Question: For “Trastuzumab: humanized monoclonal antibody against the HER2 tyrosine kinase receptor”, which “incidence of LVEF decrease or asymptomatic heart failure” value is on record?
Answer: ~7%
